Experimental data: US20250164503A1

What was measured:
[1] = molecular target: combinatorial H3K4me3+H3 poly-acetylated dNuc; assay: dCypher-Alpha bead proximity titration on dNucs
[2] = molecular target: combinatorial H3K4me3+H3 poly-acetylated dNuc; assay: CUT&RUN, recovery of DNA-barcoded spike-in dNucs
[3] = molecular target: combinatorial H3K4me3+H3 poly-acetylated dNuc; assay: dCypher-Alpha bead proximity titration on dNucs; apparent EC50
[4] = molecular target: poly-acetylated H3 (H3K4,9,14,18ac) dNuc; assay: as above
H3K4me3 dNuc = assay: as above
H3K9me3 dNuc [5] = assay: dCypher assay on dNuc substrates
H3K9me3 dNuc [6] = assay: CUT&RUN, recovery of DNA-barcoded spike-in dNucs

Question: Which results are given for GST-BPTF (PHD-BD) (designed binder)?
Answer: fold improvement in binding on the combinatorial dNuc vs. the singly-modified dNucs [1]: 25 fold; fold preference for the combinatorial PTM over either single PTM individually [2]: 8 fold; EC50 [3]: 2.7 nM; EC50 [4]: 61 nM; EC50 (H3K4me3 dNuc): 77.8 nM

Question: Which relative binding specificity toward H3K9me3 over H3K9me2 (H3K9me3 dNuc [5]) does the source give for MBP-1xCBX1 (designed binder) here?
Answer: 10 fold

Question: For MBP-2xCBX1 (designed binder), which fold increase in H3K9me3 binding compared to the single reader domain (H3K9me3 dNuc [5]) is on record?
Answer: > 100 fold

Question: For MBP-3xCBX1 (designed binder), which fold preference for its target among H3K9 me0/me1/me2/me3 spike-in dNucs (H3K9me3 dNuc [6]) is on record?
Answer: > 10 fold

Question: What about the fold improvement of on-target binding activity compared to the single reader domain (H3K9me3 dNuc [5]) of the same substance?
Answer: > 100 fold

Question: What about the relative binding specificity toward H3K9me3 over H3K9me2 (H3K9me3 dNuc [5]) of the same substance?
Answer: > 100 fold
